Literature values in PMC12530842, “Potent, Selective, and Drug‐Like G Protein‐Coupled Receptor Kinase 5 and 6 Inhibitors: Design, Synthesis, and X‐Ray Structural Studies” (Chemmedchem, 2025).

By UniProt entry, the sequences of proteins in these tests, tags left out.
UniProt P43250, whole entry T10A/C561S/C562S/C565S: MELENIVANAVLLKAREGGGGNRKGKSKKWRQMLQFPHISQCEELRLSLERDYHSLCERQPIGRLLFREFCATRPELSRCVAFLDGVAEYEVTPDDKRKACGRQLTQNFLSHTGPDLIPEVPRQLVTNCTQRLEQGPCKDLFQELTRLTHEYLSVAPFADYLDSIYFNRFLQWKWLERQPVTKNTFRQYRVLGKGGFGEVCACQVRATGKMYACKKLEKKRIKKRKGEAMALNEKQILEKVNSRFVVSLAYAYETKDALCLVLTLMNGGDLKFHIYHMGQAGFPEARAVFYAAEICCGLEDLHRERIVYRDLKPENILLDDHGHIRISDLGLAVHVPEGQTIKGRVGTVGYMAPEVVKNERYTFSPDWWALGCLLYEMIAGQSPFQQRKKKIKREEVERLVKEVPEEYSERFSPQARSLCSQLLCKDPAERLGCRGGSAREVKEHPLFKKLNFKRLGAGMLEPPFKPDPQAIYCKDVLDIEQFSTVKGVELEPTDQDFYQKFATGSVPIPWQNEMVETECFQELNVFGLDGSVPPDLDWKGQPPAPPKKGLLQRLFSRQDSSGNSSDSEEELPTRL

Biological target: T1, GRK6 (Homo sapiens, UniProt P43250, C561S/C562S/C565S/T10A)
T1 construct: His tag (inferred: purified by the GRK5 protocol, which starts with nickel-NTA); made in house; host or cells: Sf9 insect cells
Details: Figures 1 and 2; earlier work; cited from earlier work

## Cc1[nH]c(/C=C2\C(=O)Nc3ccc(C(=O)N[C@H](C)c4ccc(F)cc4)cc32)c(C)c1NC(=O)[C@H]1CCC(=O)O1 [compound 5]
  IC50: 30 ± 10 nM
